From US8080264B2, “Natural composition for curing hepatitis-B, methods for making the same and pharmaceutical formulations thereof” (Himalaya Global Holdings Ltd., priority 2004, dated 2011)

Tested on: HepG2 cells
Assay: Hepatoprotective effects in vitro against TBH oxidative damage
Settings: MTT, TBH challenge

## CC(C)(C)OO [TBH, Tertiary Butyl Hydro peroxide]
  Toxicity (%): 47.47%
